# Binding of CDR-mutated scFvs to a peptide of the spike HR2 region

Source: Engelhart et al. 2022 (doi:10.1038/s41597-022-01779-4), MIT Lincoln Laboratory and A-Alpha Bio; data file from the FLAb repository.

The target is the same throughout: PDVDLGDISGINAS, from the HR2 region of SARS-CoV-2 spike.

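Variants in AAYL51 differ from the parent at up to three CDR positions; double and triple changes were sampled at random. AlphaSeq pools MATa yeast showing the antibodies with MATalpha yeast showing the peptide. Pairs that bind mate more often; barcode pairs of the diploids are counted by sequencing. A regression on co-assayed BCL2-family reference pairs converts the normalised counts of each replicate to an apparent Kd. There are three technical replicates.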

Each scFv is VL, the linker GGGGSGGGGSGGGGS, VH, as in the parent Ab-91, and differs from it in the CDRs of the heavy chain only.
VL: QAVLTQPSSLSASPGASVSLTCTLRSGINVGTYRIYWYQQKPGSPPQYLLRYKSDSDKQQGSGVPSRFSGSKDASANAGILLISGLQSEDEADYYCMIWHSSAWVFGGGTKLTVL
VH: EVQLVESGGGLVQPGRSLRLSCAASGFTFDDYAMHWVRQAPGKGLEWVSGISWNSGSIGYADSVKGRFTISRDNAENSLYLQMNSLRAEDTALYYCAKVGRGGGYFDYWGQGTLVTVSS

Changes read parent residue, position, new residue, counted from the first residue of the VH shown. The read-out is the apparent dissociation constant on a log10 scale (nM): the lower, the stronger. Replicates are averaged; those with no signal do not enter the mean. "no signal" marks a missing value. The strain was present, yet no cells mated with the target were sequenced in any replicate, which points to weak or no binding. Empty control strains, which show no peptide, gave a signal in 21% of pairings with library AAYL51; the median was 4.54 and 95% of these signals were weaker than 3.26. No background was subtracted. The control count says in how many pairings with the empty strains this scFv gave a signal.

changes	mean, log10 nM	replicates with signal	empty controls
Y60N+V64H	5.23	3 of 3	2 of 9
D62M+Y105V+F106N	5.25	2 of 3	5 of 9
N54L+S63L+G104H	no signal	0 of 3	1 of 9
M34V+D62E+K65C	no signal	0 of 3	0 of 9
I51W+D62C+R101M	no signal	0 of 3	0 of 9
F27A+V99P+G102F	4.44	2 of 3	2 of 9
T28I+G100P+G104D	no signal	0 of 3	0 of 9
F29H+A33F+G103Q	no signal	0 of 3	2 of 9
G26Q+M34G+S57L	4.97	3 of 3	9 of 9
F29P+G50I+A61L	no signal	0 of 3	2 of 9
M34N+Y105S	4.46	2 of 3	2 of 9
A33W+M34K+Y105F	5.12	2 of 3	2 of 9
D31V+S52H+G56L	4.77	1 of 3	4 of 9
T28Y+A61R	2.17	3 of 3	2 of 9
G50Q+N54S+G103T	no signal	0 of 3	1 of 9
D30E+V64A+G102D	4.03	1 of 3	2 of 9
F29E+H35L+A61S	no signal	0 of 3	1 of 9
W53G+G56C+Y105P	4.91	2 of 3	1 of 9
N54Q+G100L	no signal	0 of 3	1 of 9
F29T+W53Q+F106H	3.09	1 of 3	0 of 9
H35M+D62Y	no signal	0 of 3	4 of 9
F29R+D30T+F106I	no signal	0 of 3	0 of 9
I58G+Y60W	5.04	2 of 3	6 of 9
I51M+I58F+A61G	no signal	0 of 3	0 of 9
F27R+M34T+S55F	4.29	1 of 3	1 of 9
G26C+G56K+V64F	no signal	0 of 3	1 of 9
A33F+M34N+H35F	4.89	2 of 3	5 of 9
M34I+V99H+Y105T	5.60	1 of 3	3 of 9
G50I+S63F+G103W	no signal	0 of 3	3 of 9
S52H+A61T	3.11	3 of 3	1 of 9
G59Y+V64F	4.80	1 of 3	3 of 9
T28D+D31Q+A33D	3.54	1 of 3	1 of 9

Continued, with the values leading:

mean, log10 nM	replicates with signal	empty controls	changes
5.01	2 of 3	1 of 9	S63H+V64F+R101H
1.44	3 of 3	4 of 9	V99Q+G102A+G104Q
4.70	2 of 3	1 of 9	F27P+G50Y
5.33	2 of 3	5 of 9	G59W+A61W+F106R
5.56	3 of 3	7 of 9	G26V+G103N+Y105G
4.82	1 of 3	2 of 9	A33D+G50Q+G104I
4.65	2 of 3	2 of 9	G50K+G56I+S57W
no signal	0 of 3	0 of 9	Y32N+V64E+G104I
3.71	3 of 3	3 of 9	W53R+F106V+Y108K
no signal	0 of 3	0 of 9	Y60C+R101M+G103S
no signal	0 of 3	0 of 9	D30I+H35T
no signal	0 of 3	0 of 9	D31T+A33Q+S52C
3.73	1 of 3	1 of 9	K65R+G102D+F106H
4.99	1 of 3	5 of 9	I51N+S52H+K65F
no signal	0 of 3	4 of 9	F27L+D31E+I58Q
no signal	0 of 3	1 of 9	I58P+G102P+D107L
3.49	1 of 3	0 of 9	F29P+D30I+N54L
4.62	1 of 3	1 of 9	G50N+W53D+Y105F
5.71	2 of 3	5 of 9	W53E+S63V+Y105I
4.81	1 of 3	5 of 9	S52Q+G59R+S63L
no signal	0 of 3	0 of 9	F29E+D31A+G100F
3.15	1 of 3	1 of 9	F29L+Y60L+R101A
no signal	0 of 3	0 of 9	M34Y+A61V+V64Y
no signal	0 of 3	0 of 9	F27D+D31M+G102Y
5.68	1 of 3	2 of 9	S55G+S63C+G100N
no signal	0 of 3	0 of 9	F29A+Y32I+A61S
5.23	1 of 3	1 of 9	M34L+S55D+R101A
4.28	1 of 3	4 of 9	Y32V+M34Y
4.14	1 of 3	0 of 9	S57Y+S63V
3.83	3 of 3	4 of 9	D30R+S52T+Y108C
3.61	1 of 3	0 of 9	N54T+S55E+V99Q
no signal	0 of 3	0 of 9	I51P+G103F
no signal	0 of 3	0 of 9	M34E+G56S+Y108M